High-throughput results deposited in PubChem by National Center for Advancing Translational Sciences (NCATS).
The list is not random: actives were taken first. Their share in the collection is about 3.7%.
ClpP mod = qHTS Assay for Activators of ClpP. 340,000 tested, 1.9% active. purified B. subtilis ClpP, FRET peptide cleavage, 20 min. ATP-dependent Clp protease proteolytic subunit (Bacillus subtilis (strain 168)), P80244. Potency, µM (top dose mostly 57.5 µM), for the others: top-dose activity change, negative = active. AID 651965, 2013; active = well fitted falling curve with a large enough effect; inconclusive = small, poorly fitted or top-dose-only effect; inactive = no such curve, though single readings can be large or run the other way; note: potency is the fitted concentration of half-maximal effect; the source files actives as falling curves though it sought activators and does not explain the sign; nearly all actives have a fitted effect of over 65% in size
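Buffer: 100 mM Tris/HCl pH8, 100 mM KCl, 0.05% low protease BSA, 2.5% glycerol, 0.01% Tween-20. ClpP 10 microg/mL final; 20 min RT; delta FRET normalized to ADEP and DMSO controls.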
p53 reactivation = restores transcriptional activity of mutant p53; H1299 p53-A138V BP100-luciferase reporter, luminescence, 24 h; Potency, µM (top dose mostly 92.2 µM), for inactives: top-dose activity change, positive = activation, actives largely listed as activators; 320,000 tested, 0.063% active; note: potency is the fitted concentration of half-maximal effect; % of control where 0% means no effect; nearly all actives have a fitted effect of over 45% in size
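H1299 (p53-null), stable ts p53-A138V + BP100-Luc; 1000 cells/well, Opti-MEM/10% FBS; cpd 4 pt, 1:5; 24 h, 37 deg C, 5% CO2; detection reagent 10 min RT; luminescence.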
A549 tox-1 = kills or reduces viability of A549 cells in Nrf2 counter-screen; Potency, µM (highest dose often 46 µM), for the others: at the top dose activity change, negative = cytotoxicity, actives largely listed as inhibitors; AID 504648; 390,000 tested, 0.16% active; A549 ARE-Fluc cells, CellTiter-Fluor viability, 18-24 h; note: potency is the fitted concentration of half-maximal effect; % is set by controls: 0 for no effect and ±100 for the full control effect
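A549 ARE-Fluc cells in 5% FBS OPTI-MEM, 5000 cells/well, rested 2 h then exposed to compounds in concentration-response for 18-24 h at 37 °C. Viability by CellTiter-Fluor fluorescence (Ex 405/Em 525) after 30 min; luciferase luminescence (BugLite, 15 min, RT) read afterwards.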
Nrf2 inh = Nrf2 pathway inhibition | AID 504444 | Potency, µM (doses to about 46 µM), for inactives: top-dose activity change, negative = inhibition, actives largely listed as inhibitors | A549 ARE-Fluc reporter, luciferase luminescence, 18-24 h | 360,000 tested, 2.1% active; note: potency is the fitted concentration of half-maximal effect; % is set by controls: 0 for no effect and ±100 for the full control effect; nearly all actives have a fitted effect of over 60% in size
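In this cell-based qHTS, ARE-driven firefly luciferase in A549 cells reports Nrf2 activity; the luminescent signal after BugLite lysis is the measured value, with a prior CellTiter-Fluor read for cell health.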
miR-21 reporter = raises the signal of a miR-21 reporter | HeLa miR-21 FLuc reporter, luciferase, 48 h | Potency, µM (highest dose often 38.3 µM), without a hit: at the top dose reporter change, positive = more light | 340,000 tested, under 10 active; active = well fitted rising curve with a large enough effect; inconclusive = small, poorly fitted or top-dose-only effect; inactive = no such curve, though single readings can be large or run the other way;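 note: % of control where 0% means no effect; miR-21 action dims this reporter so a rising signal means less miR-21 action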
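Luminescence from a firefly luciferase reporter carrying a miR-21 binding site downstream, stably expressed under a CMV promoter in HeLa cells that make miR-21 endogenously, reports miRNA modulation after 48 h compound exposure up to approximately 40uM final.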
Nrf2 activator = activates Nrf2 signaling | 410,000 tested, 0.31% active | AREc32 ARE-luciferase reporter (MCF7-derived line), luminescence, 24 h | Potency, µM (top dose mostly 46.1 µM), without a hit: at the highest dose activation, usual class: activators | AID 624171; note: potency is the fitted concentration of half-maximal effect; % of control where 0% means no effect; nearly all actives have a fitted effect of over 65% in size
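For detection, Steady-Glo was added and plates sat 30 min at RT; before that, AREc32_Fluc cells grown overnight in OPTI-MEM/5% FBS had been treated with 23 nL compound for 24 hr at 37 deg C.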
FLuc enzyme inh = counter-screen for Nrf2 inhibitors: firefly luciferase enzyme inhibition; shares compounds with Nrf2 inh; purified firefly luciferase, luminescence inhibition; Potency, µM (series often up to 57.5 µM), for the others: at the highest dose activity change, negative = inhibition, most hits filed as inhibitors; 1,400 tested, 4% active; AID 720522; note: potency is the fitted concentration of half-maximal effect; % is set by controls: 0 for no effect and ±100 for the full control effect; nearly all actives have a fitted effect of over 65% in size
A549 tox-2 = counter-screen for Nrf2 inhibitors: cytotoxicity in A549 ARE cells; shares compounds with Nrf2 inh; A549 ARE-Fluc cells, cytotoxicity counterscreen; Potency, µM (titrated, usually from 46.1 µM), inactives show at the top dose activity change, negative = cytotoxicity, hits mostly inhibitors; 1,400 tested, 2% active; AID 720523;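 note: potency is the fitted concentration of half-maximal effect; cells exposed to compounds for 18 to 24 hours; % is set by controls: 0 for no effect and ±100 for the full control effect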
ARE-Fluc inh = reduces Nrf2 ARE reporter signal in A549 cells. AID 720524. 1,400 tested, 74% active. Potency, µM (titrated, usually from 46.1 µM), inactives show at the top dose activity change, negative = inhibition, usual class: inhibitors. shares compounds with Nrf2 inh. A549 ARE-firefly luciferase reporter, luminescence; note: potency is the fitted concentration of half-maximal effect; % is set by controls: 0 for no effect and ±100 for the full control effect; nearly all actives have a fitted effect of over 65% in size
* = called active by the depositor; ? = inconclusive; . = not tested or not shown. Unless noted, calls come from the whole dose curve; as a rule, active = well fitted curve in the direction sought with a large enough effect; inconclusive = small, poorly fitted or top-dose-only effect, or another doubt; inactive = no such curve, though single readings can be large; an effect the other way counts as inactive or inconclusive.

SMILES	ClpP mod	p53 reactivation	A549 tox-1	Nrf2 inh	miR-21 reporter	Nrf2 activator	FLuc enzyme inh	A549 tox-2	ARE-Fluc inh
COc1cc2ccnc(Cc3cccc(OC)c3OC)c2cc1OC	.	1.8%	-1.0%	3.66µM*	8.0%	3.1%	2.6%	-3.0%	16.4µM*
O=C(Nc1ccc(N2CCN(C(=O)c3ccccc3)CC2)cc1)c1ccc2c(c1)OCO2	1.0%	7.3%	-19.5%	?	22.3%	-0.2%	.	.	.
Cc1ccc(C(=O)N2CCN(c3ccc(NC(=O)c4ccc5c(c4)OCCO5)cc3)CC2)cc1	0.2%	-18.2%	-18.6%	7.31µM*	7.8%	0.0%	0.0%	-22.4%	?
O=C(Cn1ncc2c3ccccc3n(Cc3ccccc3F)c2c1=O)NC1CCCCCC1	-8.9%	.	-4.1%	-15.3%	0.6%	0.0%	.	.	.
O=C(Nc1ccc(F)cc1)[C@H](Cc1ccccc1)N1Cc2ccccc2C1=O	-0.5%	.	1.2%	-2.7%	-2.1%	3.4%	.	.	.
CCN1CCS/C1=C\C=C\C1=[N+](CC)CCS1	0.1%	-2.0%	?	1.64µM*	?	3.0%	-9.8%	?	6.51µM*
O=C(O)CCC(NC(=O)c1ccc(Cl)cc1)C(=O)O (stereo not given)	.	-3.5%	1.5%	6.8%	-0.2%	-0.5%	.	.	.
CN(Cc1cnc2nc(N)nc(N)c2n1)c1ccc(C(=O)NC(CCC(=O)O)C(=O)O)c2ccccc12 (stereo not given)	-19.7%	.	-23.4%	0.0411µM*	.	0.1%	-19.8%	-18.4%	0.0326µM*
CCOC(=O)c1cc(-c2ccc(C)cc2)n(CCC(=O)NCc2ccccc2)c1C	-4.0%	.	-21.4%	8.2µM*	-2.2%	-0.2%	0.6%	-15.4%	-23.0%
CCOC(=O)c1cc(-c2ccccc2)n(CC(=O)NCc2ccc(C)cc2)c1C	-2.0%	.	-1.7%	.	0.7%	-1.3%	.	.	.

Quoted from above (three entries):
SMILES	ClpP mod	p53 reactivation	A549 tox-1	Nrf2 inh	miR-21 reporter	Nrf2 activator	FLuc enzyme inh	A549 tox-2	ARE-Fluc inh
CN(Cc1cnc2nc(N)nc(N)c2n1)c1ccc(C(=O)NC(CCC(=O)O)C(=O)O)c2ccccc12 (stereo not given)	-19.7%	.	-23.4%	0.0411µM*	.	0.1%	-19.8%	-18.4%	0.0326µM*
CCOC(=O)c1cc(-c2ccc(C)cc2)n(CCC(=O)NCc2ccccc2)c1C	-4.0%	.	-21.4%	8.2µM*	-2.2%	-0.2%	0.6%	-15.4%	-23.0%
CCOC(=O)c1cc(-c2ccccc2)n(CC(=O)NCc2ccc(C)cc2)c1C	-2.0%	.	-1.7%	.	0.7%	-1.3%	.	.	.

Next section:
SMILES	ClpP mod	p53 reactivation	A549 tox-1	Nrf2 inh	miR-21 reporter	Nrf2 activator	FLuc enzyme inh	A549 tox-2	ARE-Fluc inh
CCC(=O)N1CCCC1(C)C(=O)Nc1ccc2scnc2c1 (stereo not given)	1.4%	.	.	.	.	-0.5%	.	.	.
CCC(C)C(NC(=O)CCC(=O)OCC(=O)[C@@]1(O)CCC2[C@@H]3CCC4=CC(=O)C=C[C@]4(C)C3[C@@H](O)C[C@@]21C)C(=O)O (stereo not given in full)	-1.6%	4.5%	3.6%	0.184µM*	-29.7%	-0.1%	3.2%	-4.0%	0.206µM*
C[C@]12C=CC(=O)C=C1CC[C@@H]1C2[C@@H](O)C[C@@]2(C)C1CC[C@]2(O)C(=O)COC(=O)CCC(=O)O (stereo not given in full)	1.3%	3.9%	-2.4%	0.13µM*	-30.6%	2.8%	-3.1%	-0.3%	?
CCCC1O[C@@H]2CC3C4CCC5=CC(=O)C=C[C@]5(C)C4C(OC(C)=O)C[C@]3(C)[C@]2(C(=O)COC(C)=O)O1 (stereo not given in full)	-0.8%	-3.0%	-19.3%	-26.7%	-7.4%	0.3%	.	.	.
COc1ccc(NC(=O)COC(=O)c2ccc(S(=O)(=O)N3CCCCC3)cc2)c(OC)c1	6.5%	.	.	.	.	0.2%	.	.	.
CSc1ccccc1CNC(=O)C1(C)CCCN1CC(C)C (stereo not given)	1.4%	.	.	.	.	0.1%	.	.	.
CC1(C(=O)Nc2cccc(Oc3ccccc3)c2)CCN1Cc1cc2ccccc2o1 (stereo not given)	-1.3%	.	.	.	.	4.3%	.	.	.
CSC(=S)NN=C(C)c1cccc(C)n1	-2.2%	.	?	4.11µM*	.	25.7%	?	-25.6%	.
CN(CC(=O)Nc1ccc(OC(F)(F)F)cc1)C(=O)c1ccc(N2CCCC2=O)cc1	0.8%	-4.7%	-6.0%	2.91µM*	.	-0.2%	1.6%	0.9%	5.17µM*
CN(CC(=O)Nc1ccc(Cl)cc1)C(=O)c1ccc(N2CCCC2=O)cc1	-2.4%	?	7.8%	5.9%	.	3.7%	.	.	.
CCN1C(c2ccc(F)cc2)=CS/C1=C(/C#N)c1nnc2n1-c1ccccc1SC2	-1.6%	.	.	.	.	-0.4%	.	.	.
O=C(O)c1cccc(-n2cccc2/C=C2\NC(=O)N(Cc3ccc(F)cc3)C2=O)c1	.	2.7%	-6.7%	0.5%	-8.8%	2.3%	.	.	.
Cc1ccc(CN2C(=O)N/C(=C\c3cccn3-c3cccc(C(=O)O)c3)C2=O)cc1	.	-3.8%	?	2.59µM*	-15.5%	-0.3%	-23.1%	-8.8%	-8.0%
CCCOC(=O)c1ccc(Cn2nnc3sc4c(c3c2=O)CCC(C)C4)cc1 (stereo not given)	-1.0%	.	0.1%	33.2%	-13.1%	0.3%	.	.	.
CC(=O)C1(O)Cc2c(O)c3c(c(O)c2C(OC2CC(N)C(O)C(C)O2)C1)C(=O)c1c(O)cccc1C3=O (stereo not given)	-2.0%	.	.	.	.	.	-28.3%	?	0.461µM*
COc1cccc2c1C(=O)c1c(O)c3c(c(O)c1C2=O)CC(O)(C(C)=O)CC3OC1CC(N(C)C)C(O)C(C)O1 (stereo not given)	-2.9%	.	?	2.31µM*	.	-1.0%	-24.6%	?	1.03µM*
CC(=O)[C@@]1(O)Cc2c(O)c3c(c(O)c2[C@H](O[C@H]2C[C@H](N)[C@H](O)[C@H](C)O2)C1)C(=O)c1ccccc1C3=O	.	.	.	.	.	-1.9%	.	.	.
O=C1CCC2S/C(=C/Nc3ccc(C(F)(F)F)cc3)C(=O)N12 (stereo not given)	.	-12.9%	0.2%	1.03µM*	?	-3.6%	10.7µM*	2.3%	4.11µM*
COc1ccc2c(CNCCc3cccs3)c(C(=O)O)n(Cc3ccc(F)cc3Cl)c2c1	-29.2%	.	-14.4%	55.0%	?	-2.9%	.	.	.
O=[N+]([O-])c1ccc2ncnc(N3CCN(Cc4ccc5c(c4)OCO5)CC3)c2c1	-1.6%	-58.5%	-19.5%	8.2µM*	25.5%	-0.7%	-1.6%	-10.6%	16.4µM*
O=[N+]([O-])c1cccnc1N1CCN(Cc2ccc3c(c2)OCO3)CC1	?	.	-1.3%	2.7%	-10.1%	0.0%	.	.	.
